pIC50: −log10 of the molar value.
How the values were obtained:
[1] = test system: secretion levels of IL-6 in PBMC cells; assay: Inhibition of LPS+IL-1β-induced IL-6 secretion in PBMC (IL-6 ELISA); conditions: human PBMC, 24 h compound pre-incubation, 20 h stimulation
IRAK4 protein = IRAK4 protein (Homo sapiens, UniProt Q9NWZ3); assay: IRAK4 protein degradation in THP1 cells (Western blot); format: cell-based; conditions: 24 h

The chains behind the UniProt entries cited, without tags or fusion partners.
UniProt Q9NWZ3, whole entry: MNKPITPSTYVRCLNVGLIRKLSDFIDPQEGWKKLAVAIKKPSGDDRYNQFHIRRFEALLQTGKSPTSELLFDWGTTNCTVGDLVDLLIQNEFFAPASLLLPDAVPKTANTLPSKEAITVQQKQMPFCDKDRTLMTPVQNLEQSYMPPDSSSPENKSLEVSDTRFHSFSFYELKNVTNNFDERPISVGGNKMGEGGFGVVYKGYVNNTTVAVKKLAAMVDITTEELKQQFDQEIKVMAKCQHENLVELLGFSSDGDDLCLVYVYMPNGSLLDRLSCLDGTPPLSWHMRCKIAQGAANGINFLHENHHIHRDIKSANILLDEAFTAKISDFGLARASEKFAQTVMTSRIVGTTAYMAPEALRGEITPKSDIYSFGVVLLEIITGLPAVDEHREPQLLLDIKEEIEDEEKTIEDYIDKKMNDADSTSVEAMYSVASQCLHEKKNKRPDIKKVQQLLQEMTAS

Compound: Cc1nn(C2CCC(=O)NC2=O)c2cccc(N3CCN(C[C@H]4CC[C@H](n5cc6cc(NC(=O)c7cnn8cccnc78)c(N(C)C)cc6n5)CC4)CC3)c12 (relative stereo)
- pIC50 [1]: 7.47
- DC50 (IRAK4 protein): < 0.1 nM
